Results on one compound are retold here after PMC3830718 (Toxicology and applied pharmacology, 2013).

The chains behind the UniProt entries cited, without tags or fusion partners. Where a name states a change or a piece, a line headed by the entry shows the natural chain unless it says otherwise.
UniProt Q96FL8: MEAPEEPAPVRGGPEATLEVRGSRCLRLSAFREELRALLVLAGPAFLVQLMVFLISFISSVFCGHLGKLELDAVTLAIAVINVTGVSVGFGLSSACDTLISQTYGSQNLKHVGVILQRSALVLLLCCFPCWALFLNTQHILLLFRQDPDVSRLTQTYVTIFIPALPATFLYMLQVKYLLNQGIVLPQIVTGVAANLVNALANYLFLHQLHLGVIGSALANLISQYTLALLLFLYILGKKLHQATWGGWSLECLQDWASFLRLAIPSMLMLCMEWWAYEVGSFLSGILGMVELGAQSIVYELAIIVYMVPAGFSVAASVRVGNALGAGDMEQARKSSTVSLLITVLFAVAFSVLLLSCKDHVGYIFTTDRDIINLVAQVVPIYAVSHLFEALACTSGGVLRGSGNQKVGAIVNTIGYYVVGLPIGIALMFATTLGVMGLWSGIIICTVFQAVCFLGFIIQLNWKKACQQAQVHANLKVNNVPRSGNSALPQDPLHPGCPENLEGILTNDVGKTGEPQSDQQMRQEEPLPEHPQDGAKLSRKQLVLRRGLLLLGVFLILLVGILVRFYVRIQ

pKi: −log10 of the molar value.

Assay [1] deals with T1, human MATE2-K (hMATE2-K) (Homo sapiens, UniProt Q86VL8).
T1 sequence (Q86VL8 1-566 isoform Q86VL8-3): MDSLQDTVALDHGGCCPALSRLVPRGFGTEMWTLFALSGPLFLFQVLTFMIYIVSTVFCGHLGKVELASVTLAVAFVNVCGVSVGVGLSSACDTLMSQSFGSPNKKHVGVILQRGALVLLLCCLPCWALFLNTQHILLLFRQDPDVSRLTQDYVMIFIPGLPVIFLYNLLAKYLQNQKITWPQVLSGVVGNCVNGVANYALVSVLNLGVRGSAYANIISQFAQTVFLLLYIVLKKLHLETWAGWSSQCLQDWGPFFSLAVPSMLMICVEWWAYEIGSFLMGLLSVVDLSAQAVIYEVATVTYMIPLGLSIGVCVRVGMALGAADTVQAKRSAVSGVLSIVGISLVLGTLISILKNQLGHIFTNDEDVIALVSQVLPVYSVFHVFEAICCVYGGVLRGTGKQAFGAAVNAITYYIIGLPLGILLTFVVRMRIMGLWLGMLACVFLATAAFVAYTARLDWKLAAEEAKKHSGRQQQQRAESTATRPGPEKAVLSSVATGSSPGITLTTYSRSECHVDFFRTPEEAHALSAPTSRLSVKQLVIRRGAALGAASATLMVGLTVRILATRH
Briefly: Inhibition of metformin accumulation in HEK-293 cells stably expressing hMATE2-K. The class given is cell-based.

Assay [2] has as its target human MATE1 (hMATE1) (Homo sapiens, UniProt Q96FL8). In words: Inhibition of metformin accumulation in HEK-293 cells stably expressing hMATE1. It counts as cell-based.

With `Cc1nccn1CC1CCc2c(c3ccccc3n2C)C1=O` (centres unmarked) [ondansetron], the figures for the pKi in assay [1] and in assay [2] were 7.82 and 7.46, respectively.

As usually defined, the pKi is the negative decadic logarithm of the Ki, by convention in mol/L.
